{"source": "paper PMC10500001", "about": "“Dual hypoxia-responsive supramolecular complex for cancer target therapy” (Nature Communications, 2023)", "test_system": "PANC1 tumor-bearing mice", "experiment": "In vivo fluorescence imaging", "settings": "single mouse", "protocol": "For animals and tumor model, male BALB/c nude mice at 5–6 weeks were purchased from Vital River Laboratory Animal Technology (Beijing, China). All animal experiments were performed according to the institutional animal care guidelines established by the Institutional Animal Care and Use Committee of Nankai University. To establish the PANC1 tumor-bearing mouse model, 1 × 10^6 PANC1 cells were injected subcutaneously into the right chest of BALB/c nude mice. After the tumor grows to a suitable size, the tumor was divided into small pieces and then subcutaneously incubated into the right chest of other mice. […] The ex vivo fluorescence imaging of major organs at 24 h post injection was imaged by IVIS. Fluorescent images were analyzed using Living Image 3.1 (Caliper Life Sciences)."}
{"smiles": "CN1C(=CC=CC=CC2=[N+](C)c3ccccc3C2(C)C)C(C)(C)c2ccccc21", "note": "[CY5-DM, 1,1’,3,3,3’,3’-hexamethylindodicarbocyanine]", "values": [{"measurement": "FL intensity of the tumor in vivo", "setting": "1h post iv injection", "result": "2.04E+09"}, {"measurement": "FL intensity of the tumor in vivo", "setting": "3h post iv injection", "result": "1.51E+09"}]}
